In article PMC3830123 (Biomolecules & Therapeutics, 2013) one finds IC50 data, which are given here for one compound.

By UniProt entry, the sequences of proteins in these tests, tags left out.
UniProt P21396, whole entry: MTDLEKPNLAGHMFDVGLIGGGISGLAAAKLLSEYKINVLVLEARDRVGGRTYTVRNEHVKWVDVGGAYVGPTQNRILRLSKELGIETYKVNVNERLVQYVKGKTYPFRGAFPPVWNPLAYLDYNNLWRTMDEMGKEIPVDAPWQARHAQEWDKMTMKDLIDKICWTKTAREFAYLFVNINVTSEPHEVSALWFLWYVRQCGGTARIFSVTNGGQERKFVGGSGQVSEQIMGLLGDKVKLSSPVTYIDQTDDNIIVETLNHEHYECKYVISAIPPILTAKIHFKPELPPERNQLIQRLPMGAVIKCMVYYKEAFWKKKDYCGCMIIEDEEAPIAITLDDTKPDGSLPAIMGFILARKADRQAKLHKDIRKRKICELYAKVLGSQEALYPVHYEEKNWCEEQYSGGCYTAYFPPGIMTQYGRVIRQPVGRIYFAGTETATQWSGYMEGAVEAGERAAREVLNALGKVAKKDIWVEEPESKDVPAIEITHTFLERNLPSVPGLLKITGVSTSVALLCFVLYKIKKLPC

pIC50: −log10 of the molar value.

The assay addresses Rat brain mitochondrial MAO (MAO-A) (Rattus norvegicus, UniProt P21396). Put plainly: MAO-A assay in vitro, serotonin as substrate. Type of assay: biochemical.

For `CC(C)NNC(=O)c1ccncc1` [Iproniazid, reference compound], the negative logarithm of the IC50 (pIC50) (commonly the IC50 on a negative log10 scale, so that one unit is a factor of ten) was 4.43.
